Results as given in PMC8146637, “Enhanced Bioavailability and Efficacy of Silymarin Solid Dispersion in Rats with Acetaminophen-Induced Hepatotoxicity” (Pharmaceutics, 2021).

Test: Effect of various excipients on silymarin solubility
Format: physicochemical
Procedure: The effect of various excipients on the silymarin solubility was measured. […] Mixtures were centrifuged at 16,000× g for 10 min and supernatants filtered through a membrane filter (pore size; 0.22 μm). Filtrates were diluted in 85% acetonitrile and silybin concentrations analyzed using a liquid chromatography-tandem mass spectrometry (LC-MS/MS) system.

For “vitamin E-D-α-tocopheryl polyethylene glycol 1000 succinate [TPGS]”, the “increase in silymarin solubility in the presence of excipient” value was “highest increase”.
